Test results published in article PMC6131351, “Pharmacological difference between degrader and inhibitor against oncogenic BCR-ABL kinase” (Scientific Reports, 2018).

System: Jurkat cells
Experiment: WST cell growth inhibition, Jurkat (BCR-ABL negative)
Assay type: cell-based
Settings: Homo sapiens, 48 h, WST assay, means ± SD (n = 3)

For `Cc1nc(Nc2ncc(C(=O)Nc3c(C)cccc3Cl)s2)cc(N2CCN(CCO)CC2)n1` [Dasatinib, dasatinib, reference compound], which IC50 is on record?
Its IC50 is 6.79 ± 1.49 µM.
